Several values for one entry are separate records, joined by “and”; a condition that tells them apart may be missing. Equal values may be shown once.
Target: T1, acetylcholinesterase (AChE) (Homo sapiens, UniProt P22303)
T1 construct: endogenous in cells; host or cells: SH-SY5Y human neuroblastoma cells (ECACC-94030304), undifferentiated and differentiated
Experiment: cell-based
Conditions: AChE Inhibition IC50

By UniProt entry, the sequences of proteins in these tests, tags left out. Residues count along the entry.
UniProt P22303, 32-614: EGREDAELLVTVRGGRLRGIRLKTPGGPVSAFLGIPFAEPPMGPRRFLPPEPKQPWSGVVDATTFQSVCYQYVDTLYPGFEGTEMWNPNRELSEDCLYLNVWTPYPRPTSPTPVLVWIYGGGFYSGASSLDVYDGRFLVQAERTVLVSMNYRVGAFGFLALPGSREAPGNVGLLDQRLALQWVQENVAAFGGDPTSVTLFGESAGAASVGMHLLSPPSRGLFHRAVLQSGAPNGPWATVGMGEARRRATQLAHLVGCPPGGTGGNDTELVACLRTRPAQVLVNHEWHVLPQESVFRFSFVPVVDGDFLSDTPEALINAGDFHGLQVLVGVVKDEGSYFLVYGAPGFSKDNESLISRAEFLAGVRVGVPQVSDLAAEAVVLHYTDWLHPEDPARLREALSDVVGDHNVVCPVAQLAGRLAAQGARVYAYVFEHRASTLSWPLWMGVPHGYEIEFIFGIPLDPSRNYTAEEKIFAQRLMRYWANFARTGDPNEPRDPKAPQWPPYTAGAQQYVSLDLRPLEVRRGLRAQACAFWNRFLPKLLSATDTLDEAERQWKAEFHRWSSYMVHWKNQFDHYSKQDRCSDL

With `CNC(=O)O/N=C/C(C)(C)SC` [Aldicarb, [(E)-(2-methyl-2-methylsulfanylpropylidene)amino] N-methylcarbamate] the IC50 was 620 nM and 380 nM.
